# Ab-14 light chain CDR variants: yeast mating affinities

All variants were tested on one target, the spike HR2 peptide PDVDLGDISGINAS (SARS-CoV-2).

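Phage display of a naive human antibody library on the peptide gave the parent. Designed CDR sequences, proposed from the first random library and measured here. Several design methods are mixed in this list. The assay is AlphaSeq: two haploid yeast populations carry antibody and antigen on their surface. Mating (16 h, 30 °C) was followed by selection of diploids and sequencing of their barcodes. Each replicate has its own calibration line, from reference interactions of the BCL2 family. Mating was done six times.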

Each scFv is VH, a (GGGGS)3 linker, VL, as in the parent Ab-14, and differs from it in the CDRs of the light chain only.
VH: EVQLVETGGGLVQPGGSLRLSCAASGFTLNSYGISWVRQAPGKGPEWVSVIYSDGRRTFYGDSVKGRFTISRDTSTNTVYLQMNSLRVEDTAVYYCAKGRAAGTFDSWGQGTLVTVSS
VL: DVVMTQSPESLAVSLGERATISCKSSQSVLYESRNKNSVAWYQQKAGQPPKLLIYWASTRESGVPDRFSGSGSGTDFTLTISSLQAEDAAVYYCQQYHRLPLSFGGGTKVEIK

The parent's light chain CDRs are KSSQSVLYESRNKNSVA, WASTRES, QQYHRLPLS; each variant's own CDRs replace them letter for letter.
Variants here have more than six changes.
Kd is apparent (estimated from mating counts) and averaged on the log scale over replicates with a signal. Smaller is tighter.
An entry "nd" has no value in the source: the pair was not observed among the diploids in any replicate. This suggests poor binding but is not conclusive.
Values of this round are not directly comparable with the first-round values of the same sequences.
Background: pairings of all light chain designs with three empty control strains gave a value in 4% of cases (median 430 nM, 5th percentile 38 nM). Values in that range, when seen in few replicates, are hard to tell from nonspecific mating.
In the paper, a design with two or fewer of six values counts as a poor binder.

Variant QVGQTIMADIMNKKSIA / AEETLID / QQYARLPFS gave 4.0 nM (6 of 6 replicates). With ALSQSMDMTSRAKNSVA / DLTTREN / QQYHRLPLS the result was 1.5 nM (6 of 6 replicates). Variant KLSESVLYESQNSNNVA / DASTRMS / QQYHRLPLS gave 560 pM (6 of 6 replicates). With MISQLYNMGQFAINSVA / QASQRSE / QQYDRLPLI the result was 22 nM (6 of 6 replicates). Variant MVTQMAMTGMTNKRSVA / NAETREA / QQYHRLPLI gave 3.0 nM (6 of 6 replicates). Variant HLGLSTMLQETVRNSVA / NNSTREE / QQYDRLPLS showed 130 nM (6 of 6 replicates). For KMRQSVLYISRNWNSVA / WASTRAF / QRYHRLPLS, the assay gave nd (0 of 6 replicates). Variant VYNLPFEGYQPKKYSIA / NAEIREY / QQYFRLPIL gave 11 nM (6 of 6 replicates).

With KLRFSVMEESRNKNSVA / SASTREW / QQYHRLPLS the result was 1.5 nM (6 of 6 replicates). Variant KLQWLWLYESRNKNSVA / NASTRYS / QQYHRLPLS showed 9.8 nM (6 of 6 replicates). Variant KLSQSWMGEERNKNSVA / QASTREQ / QQYHRLPLS showed 1.1 nM (6 of 6 replicates). Variant TISQLTSSFSQNINNVA / EVSLREK / QQYDRLPLA showed 5.9 nM (6 of 6 replicates). Variant KVSAQVEYQERNINSVA / EASQRES / QQYHRLPLS gave 1.5 nM (6 of 6 replicates). For SVTRYTDENGLKMNSVA / GAAERMT / QQYHRLPLT, the assay gave 430 pM (6 of 6 replicates). Variant KLSGFHNVEQINKSNVA / EMVTRES / QQYDRLPLS showed 30 nM (6 of 6 replicates). For KISQMVKVGATHNNSIA / EEVTRAK / QQYHRLPLA, the assay gave 95 nM (6 of 6 replicates).

Variant NMTGTKEMQSNNINNIA / EMNERFA / QQYFQLPLS gave 350 nM (4 of 6 replicates). Variant KISMLHNQTFNQSNNVA / EMVTREK / QQYNRLPLS showed 77 nM (6 of 6 replicates). For KISMTYRYEQQASNSIA / EMTTREE / QSYHRLPLS, the assay gave 420 nM (2 of 6 replicates). For KSSQSYDYEDRNQNSVA / NASQREH / QQYHRLPLS, the assay gave 840 pM (6 of 6 replicates). For KLTSVTGTEKVRGNNVA / EMETREK / QQYNRLPLS, the assay gave 3.4 nM (6 of 6 replicates). Variant MFSQGVMVGWLTRNSVA / NSSTREE / QQYHRLPLS gave 4.5 nM (6 of 6 replicates). With KITDKFLTEGNGRQNIA / HGMVALE / QQYQQLPLA the result was 1.3 nM (6 of 6 replicates). For KSPQSVQYESRNKNSVA / EASTGED / NQYFILPLS, the assay gave 71 nM (2 of 6 replicates).

For HIDWLNRGETLKKDDIA / NATHREQ / QQYFHLPLV, the assay gave 4.3 nM (6 of 6 replicates). Variant MVNQIMDHLSKQTNNVA / ETTTREE / QQYERLPLS gave 4.6 nM (6 of 6 replicates). With HLGLAAMLEEYVRNSVA / NNSTREE / QQYDRLPLS the result was 120 nM (2 of 6 replicates). With KLPVLKLYWSRNKNSVA / EASTRES / QQYHRLPLS the result was 300 nM (5 of 6 replicates). Variant KLSQSFLMESMNKNSVA / EASTRIW / QQYHRLPLS gave 2.5 nM (6 of 6 replicates). Variant TLYMGPTEARKDKHNIA / GMSEREE / QQYHLLPLV gave 5.9 nM (6 of 6 replicates). Variant KLSPSWLGEERNDNSVA / NASTRLS / QQYHRLPLS showed 1.1 nM (6 of 6 replicates). With KLSATYRYESQNKNSIA / EMSTRMS / QCYHRLPLS the result was 17 nM (6 of 6 replicates).

For KLSGLMASSKFAKQNVA / ENNTREK / QQYDRLPLS, the assay gave 480 nM (3 of 6 replicates). With MVNGIMDHLSKQTNNVA / ETTTRES / QQYDRLPLV the result was 8.3 nM (6 of 6 replicates). With KSMYSCLGESRNCNSVA / SASTREL / QQYHRLPLS the result was 1.4 nM (6 of 6 replicates). Variant HMSALTLMGSRQRNSVA / QMTTREN / QQYDRLPLI gave 20 nM (6 of 6 replicates). Variant KIDENWNHGANRDNNIA / EARTVGA / QQYFRLPII showed 10 nM (6 of 6 replicates). For HISYSMAHLSKNKNSVA / NQQTREA / QQYHRLPLS, the assay gave 15 nM (6 of 6 replicates). Variant TIGQSTLMESQNRNNVA / QMSTREK / QQYDRLPLS gave 1.4 nM (6 of 6 replicates). For MLSQMWAIGTKVKNSVA / QASMRFN / QQYDRLPLI, the assay gave 450 nM (5 of 6 replicates).

For KIGMTLNQLQEKKNNVA / DLVMREN / QQYFRLPLS, the assay gave 4.2 nM (6 of 6 replicates). With HFAKNLTSLANSKQNVA / NASTVMV / QYYNRLPLS the result was 210 nM (3 of 6 replicates). For NVHALMNHSSEFQQSIA / DEECRDA / QQYERLPLS, the assay gave 85 nM (6 of 6 replicates). Variant KLHISDGYEQRNKNSVA / SASTRSH / QQYHRLPLS gave 3.2 nM (6 of 6 replicates). For NFSQMVLTGSTLRNSVA / HAQTREE / QQYHRLPLI, the assay gave 11 nM (6 of 6 replicates). Variant MISDLMKYGSRNKNPIA / NASTREY / QQYHRLPLE showed 11 nM (6 of 6 replicates). For KVEEEGDVIARIDNSVA / EMSMVLD / QQYHRLPLA, the assay gave 6.6 nM (1 of 6 replicates). With KLMWSVMLESRNKNSVA / QASTRMS / QDYHRLPLS the result was 3.0 nM (6 of 6 replicates).

Values reported by Li et al. 2023, doi:10.1038/s41467-023-39022-2 (FLAb copy).